The other results are listed elsewhere or left out. Entries with a potency or affinity are not part of this list. Activity calls are given as the source filed them. Cut-off read from the data, not from the text of the source: active = activation above about 50% (passing the limit was not always enough); inactive = the rest.
The compounds below were run against Kappa-type opioid receptor (Homo sapiens) (UniProt P41145) (assay: kappa opioid receptor activators – cell-based, luminescence, uHTS, primary screen (AID 1777)). Conditions: KOR beta-arrestin recruitment, at 10 µM, stronger effect = higher value.

Amino acid sequences for entries named in this document (tags omitted). A change or cut given only in a name is not applied to a line headed by its entry.
UniProt P41145: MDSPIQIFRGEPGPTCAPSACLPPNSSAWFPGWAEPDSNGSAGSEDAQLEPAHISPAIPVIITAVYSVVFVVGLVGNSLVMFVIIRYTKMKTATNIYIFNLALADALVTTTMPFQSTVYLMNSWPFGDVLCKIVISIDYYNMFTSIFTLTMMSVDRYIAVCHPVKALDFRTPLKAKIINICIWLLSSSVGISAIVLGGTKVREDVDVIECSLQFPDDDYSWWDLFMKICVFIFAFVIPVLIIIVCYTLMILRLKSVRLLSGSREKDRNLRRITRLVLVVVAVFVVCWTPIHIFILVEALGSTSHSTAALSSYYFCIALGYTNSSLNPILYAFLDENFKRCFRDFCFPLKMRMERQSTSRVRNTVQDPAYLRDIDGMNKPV

**Q.** With `CCC(C(=O)NC1CCCC1)n1c(SCc2cccc(C)c2)nc2ccncc21` (stereo unspecified) as the compound, how does the activation read?
**A.** inactive: -2.3%

**Q.** How did the activation turn out when `COc1ccc2c(c1)C1(Nc3ccccc3-c3nc4ccccc4n31)C(=O)N2` (stereo unspecified) was run?
**A.** inactive: 2.6%

**Q.** With `CC(=O)Nc1ccc([As](=O)(O)O)c(O)c1` as the compound, how does the activation read?
**A.** inactive: 6.5%

**Q.** For `CC1=NNC(=O)C1CCC(=O)N/N=C/C=C/c1ccccc1` (stereo unspecified), which activation is on record?
**A.** inactive: -3.3%

**Q.** For `O=S(=O)(c1ccc(F)cc1)N1CCn2c(nc3ccccc32)C1`, which activation is on record?
**A.** inactive: 8.3%

**Q.** For `CSCC[C@H](NC(=O)N1CCn2c1nc1ccccc12)C(=O)NC1CCCCC1`, which activation is on record?
**A.** inactive: -6%

**Q.** For `COCCN1CCn2c(nc3cc(NC(=O)Cn4nc(C)c5ccccc5c4=O)ccc32)C1`, which activation is on record?
**A.** inactive: 8.1%

**Q.** For `COc1ccc(CCNC(=O)[C@H](C)NC(=O)N2CCn3c2nc2ccccc23)cc1OC`, which activation is on record?
**A.** inactive: -2.1%

**Q.** How did the activation turn out when `CC(C)[C@H](NC(=O)N1CCn2c1nc1ccccc12)C(=O)NCc1ccc(F)cc1` was run?
**A.** inactive: -2.8%

**Q.** How did the activation turn out when `COc1ccccc1OCC(O)Cn1c(=N)n(CCN2CCCCC2)c2ccccc21` (stereo unspecified) was run?
**A.** inactive: 2%

**Q.** How did the activation turn out when `CC(C)C[C@H](NC(=O)N1CCn2c1nc1ccccc12)C(=O)NCc1ccccc1` was run?
**A.** inactive: 3%

**Q.** With `Fc1ccc2c(c1)nnn2C1CCN(Cc2nnnn2CCc2ccccc2)CC1` as the compound, how does the activation read?
**A.** inactive: 3.3%

**Q.** Which activation does the source give for `O=C(Cn1cnc2ccccc21)Nc1ccc(C(=O)O)cc1` here?
**A.** inactive: -1.5%

**Q.** `O=C(C1COc2ccccc2O1)N1CCn2c(nc3ccccc32)C1` (stereo unspecified) was tested. Which activation did it give?
**A.** inactive: -9%

**Q.** Which activation does the source give for `COCCN1CCn2c(nc3cc(NC(C)=O)ccc32)C1` here?
**A.** inactive: 0.9%

**Q.** Which activation does the source give for `CCOc1ccc(C2=NCC(CBr)S2)cc1` (stereo unspecified) here?
**A.** inactive: -1.2%

**Q.** `COCCNC(=O)Cn1cnc2c1c(=O)n(C)c(=O)n2C` was tested. Which activation did it give?
**A.** inactive: 1%

**Q.** For `O=P1(Nc2nc3ccc(Cl)cc3s2)COc2ccccc2O1` (stereo unspecified), which activation is on record?
**A.** inactive: 4.2%

**Q.** `CCn1c(=O)c2c(nc3n2CCN3c2ccccc2)n(C)c1=O` was tested. Which activation did it give?
**A.** inactive: -1.7%

**Q.** For `C[C@H](NC(=O)N1CCn2c1nc1ccccc12)C(=O)NCc1ccccc1`, which activation is on record?
**A.** inactive: 8.2%

**Q.** How did the activation turn out when `CC1CN(C(=O)Cn2cnc3c2c(=O)n(C)c(=O)n3C)CC(C)O1` (stereo unspecified) was run?
**A.** inactive: -0.4%

**Q.** How did the activation turn out when `Cc1nc2ccccc2n1CC(=O)N1CC(=O)Nc2ccccc21` was run?
**A.** inactive: -2%

**Q.** Which activation does the source give for `COc1cccc(CNC(=O)[C@H](CCSC)NC(=O)N2CCn3c2nc2ccccc23)c1` here?
**A.** inactive: -2.3%

**Q.** For `Cc1ccc2c(c1)C1CN(C)CCC1N2C(=O)COc1ccc(N(C)C(=O)c2ccccc2)cc1` (stereo unspecified), which activation is on record?
**A.** inactive: -2.3%

**Q.** With `Cc1ccc(C)c(CSc2nc3ccncc3n2CC(=O)Nc2ccc(C)c(C)c2)c1` as the compound, how does the activation read?
**A.** inactive: 8%

**Q.** `N=c1n(CCCOc2ccccc2Cl)c2ccccc2n1CC(N)=O` was tested. Which activation did it give?
**A.** inactive: -0.6%

**Q.** Which activation does the source give for `N#Cc1cccc(NC(=O)Cn2c3[n+](c4ccc(C(F)(F)F)cc42)CCCCC3)c1` here?
**A.** inactive: 2.6%

**Q.** How did the activation turn out when `CC(C)CCNC(=O)CC1C(=O)N(Cc2ccccc2)C(C)c2nc3ccccc3n21` (stereo unspecified) was run?
**A.** inactive: -1.3%

**Q.** How did the activation turn out when `CC(C)(C)NC(=O)Cn1c(SCC(N)=O)nc2ccccc21` was run?
**A.** inactive: 6.1%

**Q.** Which activation does the source give for `CCc1cccc(CC)c1N(COC)C(=O)Cn1cnc2ccccc21` here?
**A.** inactive: -0.8%

**Q.** How did the activation turn out when `C[C@H](NC(=O)N1CCn2c1nc1ccccc12)C(=O)N1CCCCC1` was run?
**A.** inactive: 3.6%

**Q.** For `CSc1nc2ccccc2n1CC(=O)Nc1ccc(C)c(C)c1`, which activation is on record?
**A.** inactive: -0.4%

**Q.** Which activation does the source give for `CCc1cccc(CC)c1N(COC)C(=O)Cn1c(CO)nc2ccccc21` here?
**A.** inactive: -4.1%

**Q.** With `COc1ccc(/C=N/NC(=O)Cn2cnc3c2c(=O)n(C)c(=O)n3C)cc1` as the compound, how does the activation read?
**A.** inactive: 1.3%

**Q.** `c1ccc(CN2CCC(Nc3nc(-c4cccnc4)nc4ccccc34)CC2)cc1` was tested. Which activation did it give?
**A.** inactive: -2%

**Q.** With `COC(=O)C1=C(Cn2cnc3ccccc32)NC(=O)NC1c1cc(C)ccc1C` (stereo unspecified) as the compound, how does the activation read?
**A.** inactive: -2.8%

**Q.** `CC(C)(C)C(=O)NC(Sc1ccccc1)C(Cl)(Cl)Cl` (stereo unspecified) was tested. Which activation did it give?
**A.** inactive: 6.9%

**Q.** Which activation does the source give for `O=C(Cn1c(CO)nc2ccccc21)Nc1ccccc1Cl` here?
**A.** inactive: 3.5%

**Q.** How did the activation turn out when `CCc1nc2ccccc2n1CC(=O)N1CCN(Cc2ccccc2)CC1` was run?
**A.** inactive: -2.9%

**Q.** `CSc1nc2ccccc2n1CC(=O)Nc1c(C)n(C)n(-c2ccccc2)c1=O` was tested. Which activation did it give?
**A.** inactive: -2%

**Q.** With `CC(/C=C/c1ccccc1)=N/NC(=O)CCC(=O)Nc1ccccc1C` as the compound, how does the activation read?
**A.** inactive: 4.4%

**Q.** `O=C(Cn1c(-c2cncs2)nc2ccccc21)NCCc1ccccc1` was tested. Which activation did it give?
**A.** inactive: 4.5%

**Q.** For `COc1cccc(C(=O)CSc2nc3ccccc3n2CC(=O)N2CCOCC2)c1`, which activation is on record?
**A.** inactive: 3.7%

**Q.** For `CCOC(=O)c1ccc(NC(=O)Cn2c(-c3nonc3N)nc3ccccc32)cc1`, which activation is on record?
**A.** inactive: 2.3%

**Q.** How did the activation turn out when `O=C(Cn1c(CO)nc2ccccc21)NCCc1ccccc1` was run?
**A.** inactive: -5.7%

**Q.** With `Nc1cccc2c([As](=O)(O)O)cccc12` as the compound, how does the activation read?
**A.** inactive: 2.6%

**Q.** Which activation does the source give for `Cn1c(=O)c2c(ncn2CC(=O)Nc2cc(Cl)c(Cl)cc2Cl)n(C)c1=O` here?
**A.** inactive: -3%

**Q.** With `CCCCC(=O)Nc1ccc2c(c1)nc1n2CCN(CCOC)C1` as the compound, how does the activation read?
**A.** inactive: 4.2%

**Q.** `Cc1ccc(NCCc2c([N+](=O)[O-])cc([N+](=O)[O-])cc2[N+](=O)[O-])cc1` was tested. Which activation did it give?
**A.** inactive: -4.8%

**Q.** With `O=C(Cn1c(C(F)(F)F)nc2ccccc21)Nc1ccccc1N1CCOCC1` as the compound, how does the activation read?
**A.** inactive: 4.5%

**Q.** Which activation does the source give for `O=C(Nc1nc2ccccc2n1CCN1CCOCC1)c1ccccc1` here?
**A.** inactive: 1.4%

**Q.** Which activation does the source give for `NNC(=O)Cn1cnc2ccccc21` here?
**A.** inactive: 0%

**Q.** For `Cc1ccc2c(c1)C1CN(C)CCC1N2C(=O)c1ccccc1NS(=O)(=O)c1cccc(C(F)(F)F)c1` (stereo unspecified), which activation is on record?
**A.** inactive: 5.3%

**Q.** `Oc1ccc(CC2(N3CCCC3)CCCCC2)cc1` was tested. Which activation did it give?
**A.** inactive: 0.7%

**Q.** `Cn1c(=O)n(CCc2ccccc2)c(=O)c2c1nc1n2CCN1Cc1ccco1` was tested. Which activation did it give?
**A.** inactive: -3.4%

**Q.** For `C[C@H](NC(=O)N1CCn2c1nc1ccccc12)C(=O)NCc1ccc(F)cc1`, which activation is on record?
**A.** inactive: -5%

**Q.** `CSCC[C@H](NC(=O)N1CCn2c1nc1ccccc12)C(=O)N1CCCCC1` was tested. Which activation did it give?
**A.** inactive: -1.9%

**Q.** `CCCOP(=S)(Nc1nc(N)cc(=O)[nH]1)OCCC` was tested. Which activation did it give?
**A.** inactive: 4.7%

**Q.** Which activation does the source give for `O=C(CSc1nc2ccccc2n1CC(=O)N1CCOCC1)N1CCCC1` here?
**A.** inactive: -4.3%

**Q.** `CCN(CC)CCCNC(=S)N1CCn2c(nc3ccccc32)C1` was tested. Which activation did it give?
**A.** inactive: 13.2%

**Q.** Which activation does the source give for `COc1cccc(CNC(=O)[C@H](CC(C)C)NC(=O)N2CCn3c2nc2ccccc23)c1` here?
**A.** inactive: -1.2%
